Experimental data from PubChem BioAssay AID602363 (Broad Institute, 2012).
Only a part is listed here, and it is no random draw. Some of these compounds have results that are not shown, active ones among them. Active and inactive are the calls of the source.

Test: UUG initiation codon usage in yeast – whole organism, S. cerevisiae, single point, plate reader, primary screen (AID 602363);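 further: firefly luciferase made from a UUG start codon reports start codon fidelity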
Conditions: S. cerevisiae UUG-firefly luciferase reporter, luminescence/redox ratio; at 18.7 µM; stronger effect = higher value

Row | Compound | activity score
1 | CN1[C@@H]2CC[C@H]1CC(OC(=O)C(O)(c1ccccc1)c1ccccc1)C2 (some centres undefined) | inactive: -0.856%
2 | Cc1ccc(C(=O)NCC2(N3CCCCC3)CCCCC2)cc1 | inactive: 3.29%
3 | CC(C)N1C(=O)CC2(CCN(CCOC(=O)C(O)(c3ccccc3)c3ccccc3)CC2)C1=O | inactive: -16.8%
4 | COc1cc(SC)ccc1C(=O)NCC1(N(C)C)CCCCC1 | inactive: -25.9%
5 | CCN(CC)CC(C)C(C)OC(=O)C(O)(c1ccccc1)c1ccccc1 (centres undefined) | inactive: -0.526%
6 | CN(C)c1ccc(C(=O)NCC2(N(C)C)CCCCC2)cc1 | inactive: -13.2%
7 | O=C(NCC1(N2CCCCC2)CCCCC1)c1cccc(Br)c1 | inactive: -13.4%
8 | Cc1cc(C(=O)NCC2(N3CCCCC3)CCCCC2)ccc1[N+](=O)[O-] | inactive: -10.1%
9 | COc1ccc(C(=O)NCC2(N(C)C)CCCCC2)cc1 | inactive: 7.78%
10 | O=C(NCC1(N2CCCCC2)CCCCC1)c1cc(F)c(F)cc1Cl | inactive: -1.38%
11 | COc1cc(C(=O)NCC2(N(C)C)CCCCC2)c([N+](=O)[O-])cc1OC | inactive: -14.4%
12 | CN(C)C1(CNC(=O)c2ccc(Br)cc2)CCCCC1 | inactive: -16.2%
13 | O=C(NCC1(N2CCCCC2)CCCCC1)c1cccc(Cl)c1 | inactive: -10.6%
14 | COc1ccc(Cl)cc1C(=O)NCC1(N(C)C)CCCCC1 | inactive: -1.83%
15 | CN(C)c1cccc(C(=O)NCC2(N(C)C)CCCCC2)c1 | inactive: -8.16%
16 | O=C(OCCN1CCCC1)C(O)(c1ccccc1)c1ccccc1 | inactive: -14%
17 | CC(C)Oc1ccc(C(=O)NCC2(N(C)C)CCCCC2)cc1 | inactive: -9.58%
18 | COc1ccc(Br)c(C(=O)NCC2(N3CCCCC3)CCCCC2)c1 | inactive: -2.54%
19 | C=C(C)C#CC(O)(C(=O)OC1CCN(C)CC1)c1ccccc1 (centres undefined) | inactive: -7.42%
